System: COVID-19 Delta virus
Test: Lung histopathology of mice infected with COVID-19 Delta virus (treatment)
Settings: number of mice with lesion grade, COVID-19 Delta virus infected mice

Compound: COc1ccc([C@H]2OC[C@H]3[C@@H]2CO[C@H]3c2ccc(O[C@@H]3O[C@H](CO)[C@@H](O)[C@H](O)[C@H]3O)c(OC)c2)cc1OC [Serial No. 2, phillyrin]
- Interstitial pneumonia, Mild (High dose (80 mg/kg)): 3
- Interstitial pneumonia, Moderate (High dose (80 mg/kg)): 1
- Interstitial pneumonia, Severe (High dose (80 mg/kg)): 0
- Pulmonary hemorrhage, Severe (High dose (80 mg/kg)): 0
- Interstitial pneumonia, Mild (Low dose (40 mg/kg)): 2
- Interstitial pneumonia, Moderate (Low dose (40 mg/kg)): 2
- Interstitial pneumonia, Severe (Low dose (40 mg/kg)): 0
- Pulmonary hemorrhage, Mild (Low dose (40 mg/kg)): 2
- Pulmonary hemorrhage, Moderate (Low dose (40 mg/kg)): 2
- Pulmonary hemorrhage, Severe (Low dose (40 mg/kg)): 0

— patent US20250049831A1, “ANTIVIRAL USE OF BISE[…], AND BISEPOXYLIGNAN COMPOSITION AND PREPARATION OF BISE[…]” (priority 2021, published 2025)
